Earlier results as cited in PMC10779535, “Design and Synthesis of D3R Bitopic Ligands with Flexible Secondary Binding Fragments: Radioligand Binding and Computational Chemistry Studies” (Molecules, 2023).

The chains behind the UniProt entries cited, without tags or fusion partners. Where a name states a change or a piece, a line headed by the entry shows the natural chain unless it says otherwise.
UniProt P35462, whole entry: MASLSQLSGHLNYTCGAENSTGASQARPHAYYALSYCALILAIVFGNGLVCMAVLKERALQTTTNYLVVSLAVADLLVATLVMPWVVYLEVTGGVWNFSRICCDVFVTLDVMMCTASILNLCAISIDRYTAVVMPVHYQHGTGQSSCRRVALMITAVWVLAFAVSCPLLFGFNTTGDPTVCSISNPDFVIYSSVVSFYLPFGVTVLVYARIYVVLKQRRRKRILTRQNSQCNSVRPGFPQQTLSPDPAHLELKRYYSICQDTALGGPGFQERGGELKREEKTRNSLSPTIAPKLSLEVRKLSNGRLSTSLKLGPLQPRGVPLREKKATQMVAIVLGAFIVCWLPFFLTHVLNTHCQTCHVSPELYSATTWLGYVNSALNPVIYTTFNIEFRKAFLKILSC

Molecular target: D3R (Homo sapiens, UniProt P35462)
Conditions: CJ-1882; cited from earlier work

SMILES: CCCN(CCC1(O)CC(NC(=O)c2ccc3ccccc3c2)C1)C1CC1c1ccc(Cl)cc1 (stereo not shown) [CJ-1882]
- D3R/D2R, D3R versus D2R selectivity (fold): 223
